# Compound activity deposited in PubChem by National Center for Advancing Translational Sciences (NCATS).
# This is a sample that favours compounds with a hit; in the whole collection about 16% have one here.
# miR-21 reporter: miR-21 reporter, rising signal; HeLa miR-21 FLuc reporter, luciferase, 48 h; Potency, µM (top dose mostly 38.3 µM), without a hit: at the top dose reporter change, positive = more light; 340,000 tested, under 10 active; active = well fitted rising curve with a large enough effect; inconclusive = small, poorly fitted or top-dose-only effect; inactive = no such curve, though single readings can be large or run the other way;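 note: % of control where 0% means no effect; miR-21 action dims this reporter so a rising signal means less miR-21 action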
#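 Compounds were titrated across several concentrations (up to approximately 40 uM) and incubated 48 hours with HeLa miR-21-FLuc reporter cells (miR-21 target sequence downstream of FLuc, endogenous miR-21). Readout was firefly luciferase luminescence after lytic detection reagent.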
# uPA surface inh: inhibitors of cell surface uPA generation; cell surface uPA generation assay, qHTS; 330,000 tested, 0.31% active; Potency, µM (series often up to 38.3 µM), for the others: top-dose activity change, negative = inhibition, usual class: inhibitors; active means well fitted inhibition curve with a large enough effect; inconclusive means small, poorly fitted or top-dose-only effect; inactive means no such curve, though single readings can be large or run the other way; tested in mouse RAW 264.7 cells; further: potency means the concentration at half of the fitted maximal effect; on the % scale 0 is the no-effect control and ±100 the full control effect; nearly all actives have a fitted effect of over 55% in size
# DT40 TDP1 CPT: growth inhibition of DT40 Tdp1-/-;hTDP1 cells with camptothecin (screen for TDP1 inhibitors). 420,000 tested, 12% active. chicken DT40 Tdp1-/-;hTDP1 cells + 20 nM CPT, ATP luminescence, 48 h. Potency, µM (series often up to 46.2 µM), for the others: at the highest dose activity change, negative = growth inhibition, most hits filed as inhibitors. AID 686979; further: potency means the concentration at half of the fitted maximal effect; on the % scale 0 is the no-effect control and ±100 the full control effect; nearly all actives have a fitted effect of over 55% in size
#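 Chicken DT40 Tdp1-/- cells stably complemented with human TDP1 were seeded at 400 cells/well in medium containing 20 nM camptothecin, exposed to pin-transferred compounds, and grown at 37 °C for at least 48 hr. Viability was read as ATP luminescence.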
# TDP1 inh: blocks human tyrosyl-DNA phosphodiesterase 1; Q9NUW8; recombinant TDP1, AlphaScreen DNA substrate cleavage; Potency, µM (top dose mostly 130 µM), for the others: at the highest dose activity change, negative = inhibition, actives largely listed as inhibitors; 350,000 tested, 0.28% active; further: potency means the concentration at half of the fitted maximal effect; on the % scale 0 is the no-effect control and ±100 the full control effect; nearly all actives have a fitted effect of over 40% in size
#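 Recombinant E. coli-expressed Tdp1 (1 nM) preincubated with compound 15 min at RT, then 5'-biotin/3'-phosphotyrosine-FITC DNA substrate (15 nM) added for 5 min. AlphaScreen beads (10 ug/ml) added, 10 min RT; tyrosine-FITC cleavage read as signal loss.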
# DT40 TDP1 no CPT: qHTS for Inhibitors of human tyrosyl-DNA phosphodiesterase 1 (TDP1): qHTS in cells in absence of CPT; 420,000 tested, 15% active; AID 686978, 2013; DT40 Tdp1-/- hTDP1 cells, no CPT, ATP luminescence, 48 h; Potency, µM (doses to about 46.2 µM), without a hit: top-dose activity change, negative = growth inhibition, most hits filed as inhibitors; further: potency means the concentration at half of the fitted maximal effect; on the % scale 0 is the no-effect control and ±100 the full control effect; nearly all actives have a fitted effect of over 55% in size
#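 Chicken DT40 Tdp1-/- cells stably complemented with human TDP1 were seeded at 400 cells/well with DMSO in place of 20 nM camptothecin. After compound pinning, cells grew at least 48 hr at 37 °C; viability read by CellTiter-Glo luminescence.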
# Active calls of the source: *; ? = inconclusive; nt = no result given; [ ] = remark or other dose. Unless noted, the call rests on the fitted dose curve; in most records, active means well fitted curve in the direction sought with a large enough effect; inconclusive means small, poorly fitted or top-dose-only effect, or another doubt; inactive means no such curve, though single readings can be large; an effect the other way counts as inactive or inconclusive.
# The first 2 records, ahead of the listing:
[1] Cc1ccc(CNC2CCCCC2)s1
[2] Cc1ccc(C(c2nnnn2CCc2ccccc2)N2CCSCC2)cc1 (configuration not stated)
Assay by compound	1	2
miR-21 reporter	-3%	14%
uPA surface inh	-1%	4%
DT40 TDP1 CPT	4%	16µM*
TDP1 inh	4%	9%
DT40 TDP1 no CPT	-4%	?

# All compounds of this part, previewed entries included:
[1] Cc1ccc(CNC2CCCCC2)s1
[2] Cc1ccc(C(c2nnnn2CCc2ccccc2)N2CCSCC2)cc1 (configuration not stated)
[3] Cc1ccc(C(c2nnnn2CCc2ccccc2)N2CCC(C)CC2)cc1 (configuration not stated)
[4] Cc1nn(C)cc1NC(=O)Cn1nc(C(F)(F)F)cc1C1CC1
[5] Cc1ccc(Cl)cc1NC(=O)c1cc(NC(=O)CCCC(=O)O)ccc1N1CCCCC1
[6] CCOC(=O)c1cc(OCC)c2c(ccc3cc(OC)ccc32)n1
[7] O=C(Nc1ccc(Br)cc1F)N1CCC(CN2CCc3ccccc3C2)CC1
[8] Cc1ccc(S(=O)(=O)N2CCCCC2)cc1NC(=O)C1CC(=O)N(Cc2ccco2)C1 (configuration not stated)
Assay by compound	1	2	3	4	5	6	7	8
miR-21 reporter	-3%	14%	13%	-3%	-9%	nt	-1%	nt
uPA surface inh	-1%	4%	3%	8%	15%	nt	nt	3%
DT40 TDP1 CPT	4%	16µM*	?	-2%	20%	?	?	-18%
TDP1 inh	4%	9%	-2%	5%	3%	nt	0%	0%
DT40 TDP1 no CPT	-4%	?	16µM*	-8%	16%	5.8µM*	?	-13%

# Fetched by structure from the list above (2):
[3] Cc1ccc(C(c2nnnn2CCc2ccccc2)N2CCC(C)CC2)cc1 (configuration not stated)
[7] O=C(Nc1ccc(Br)cc1F)N1CCC(CN2CCc3ccccc3C2)CC1
Assay by compound	3	7
miR-21 reporter	13%	-1%
uPA surface inh	3%	nt
DT40 TDP1 CPT	?	?
TDP1 inh	-2%	0%
DT40 TDP1 no CPT	16µM*	?

# (cont.)
[9] CCOc1ccccc1NC(=O)CC1Nc2ccccc2NC1=O (configuration not stated)
[10] CCOc1ccccc1NC(=O)CC1Nc2cc(C)c(C)cc2NC1=O (configuration not stated)
[11] COC(=O)c1ccc(NC(=O)CC2Nc3cc(C)c(C)cc3NC2=O)cc1 (configuration not stated)
[12] Cc1cc2c(cc1C)NC(CC(=O)Nc1ccccc1)C(=O)N2 (configuration not stated)
[13] O=C1C2C(c3cccc(/C=C/c4ccccc4)c3)CC=CC2C(c2ccc3ccccc3c2)N1Cc1ccccc1 (configuration not stated)
[14] CC[C@@H]1CC=C[C@H]2[C@H]1C(=O)N(Cc1ccccc1)[C@H]2c1ccc(OC)c(Cl)c1
[15] COc1ccc(-c2cccc(C3CC=CC4C3C(=O)N(Cc3ccccc3)C4c3ccc(OC)c(Cl)c3)c2)cc1 (configuration not stated)
[16] CCC1CC=CC2C1C(=O)N(Cc1ccccc1)C2c1ccc(C(F)(F)F)cc1 (configuration not stated)
Assay by compound	9	10	11	12	13	14	15	16
miR-21 reporter	12%	7%	-23%	-4%	1%	17%	?	nt
uPA surface inh	-11%	-8%	nt	nt	20%	-10%	1%	nt
DT40 TDP1 CPT	14%	18µM*	?	16µM*	?	18µM*	21µM*	nt
TDP1 inh	-3%	2%	nt	nt	4%	-2%	1%	-8%
DT40 TDP1 no CPT	?	?	?	26µM*	16µM*	13µM*	13µM*	nt

[17] Cc1ccc(-c2cccc(C3CC=CC4C3C(=O)N(Cc3ccccc3)C4c3ccc4ccccc4c3)c2)cc1 (configuration not stated)
[18] COc1ccc(-c2cc(C3C4C=CCC(C)C4C(=O)N3Cc3ccccc3)ccc2F)cc1 (configuration not stated)
[19] COc1ccc(-c2cccc(C3CC=CC4C3C(=O)N(Cc3ccccc3)C4c3cc(C)ccc3F)c2)cc1 (configuration not stated)
[20] Cc1ccc(Oc2ccc(OCC(=O)Nc3ccncc3)cc2)cc1
[21] O=C1C2C(c3cccc(/C=C/c4ccccc4)c3)CC=CC2C(c2ccc(C(F)(F)F)cc2)N1Cc1ccccc1 (configuration not stated)
[22] O=C(NC1CC1)c1cccc(NC(=O)C2CCCCC2)c1
[23] O=C1O[C@@H](c2ccccc2)C[C@@H](O)[C@H](O)CCCc2ccccc21
[24] O=C(NCCc1cccnc1)c1cc(COc2ccc(F)cc2Cl)on1
Assay by compound	17	18	19	20	21	22	23	24
miR-21 reporter	-1%	nt	22%	nt	4%	nt	nt	1%
uPA surface inh	8%	nt	nt	nt	20%	3%	nt	-2%
DT40 TDP1 CPT	18µM*	nt	nt	nt	15µM*	-5%	-21%	?
TDP1 inh	5%	5%	-1%	-1%	4%	nt	nt	3%[56.1 µM]
DT40 TDP1 no CPT	13µM*	nt	nt	nt	?	-28%	?	?

[25] COc1cccc(CNC(=O)c2cc(COc3c(F)cccc3F)on2)c1
[26] CC(Cc1cnccn1)NC(=O)c1cc(COc2ccc(F)cc2F)on1 (configuration not stated)
[27] CC(CNC(=O)c1cc(COc2c(F)cccc2F)on1)Oc1cccnc1 (configuration not stated)
[28] O=C(NCCc1cccnc1)c1cc(COc2ccc(F)cc2F)on1
[29] O=C(NCCCc1ccccc1)c1cc(COc2ccc(F)cc2Cl)on1
[30] CC(Cc1cccnc1)NC(=O)c1cc(COc2ccc(F)cc2F)on1 (configuration not stated)
[31] O=C(COc1ccccc1F)NNC(=O)Cn1c(=O)cnc2ccccc21
[32] CN(CC(=O)Nc1ccc(Cl)c(C(F)(F)F)c1)Cc1cc(=O)n2ccsc2n1
Assay by compound	25	26	27	28	29	30	31	32
miR-21 reporter	-11%	-4%	8%	7%	5%	10%	nt	3%
uPA surface inh	-2%	-2%	4%	-9%	2%	-3%	8%	-1%
DT40 TDP1 CPT	-9%	?	21µM*	?	21µM*	16µM*	-19%	-18%
TDP1 inh	nt	3%	6%	1%	-10%	3%	0%	5%
DT40 TDP1 no CPT	-22%	5%	15µM*	23µM*	?	21µM*	?	?

[33] Cc1cc(C)cc(C(=O)NCC(=O)OCC(=O)N2c3ccccc3NC(=O)C2(C)C)c1
[34] COc1ccc(OCc2cc(C(=O)NC(C)Cc3cccnc3)no2)c(Cl)c1 (configuration not stated)
[35] CCn1ccnc1CNC(=O)c1cc(COc2ccc(F)cc2F)on1
[36] CCn1cc(CNC(=O)c2cc(COc3ccc(F)cc3F)on2)cn1
[37] COc1ccc(OCc2cc(C(=O)NC(C)Cc3ccccn3)no2)c(Cl)c1 (configuration not stated)
[38] COc1ccc(O)c(-c2[nH]ncc2C(=O)c2cccc(C)c2)c1
[39] CN1CCN(C(=O)c2cnn3c2NC(c2ccccc2)CC3C(F)(F)F)CC1 (configuration not stated)
[40] O=C(NCc1ccco1)c1cnn2c1NC(c1ccc(Br)cc1)CC2C(F)(F)F (configuration not stated)
[41] O=C(O)c1cnn2c1NC(c1ccc(F)cc1)CC2C(F)(F)F (configuration not stated)
Assay by compound	33	34	35	36	37	38	39	40	41
miR-21 reporter	1%	-1%	-7%	-4%	-15%	4%	0%	1%	-3%
uPA surface inh	0%	-28%	4%	-24%	-6%	9%	1%	3%	5%
DT40 TDP1 CPT	-1%	?	1%	?	?	-17%	11%	4.1µM*	-20%
TDP1 inh	?	5%	4%	4%	2%	nt	-9%	2%	-4%
DT40 TDP1 no CPT	0%	23µM*	4%	23µM*	?	-2%	12%	4.1µM*	-5%
